Tests used:
JNK3 = JNK3 (Homo sapiens (Human), UniProt P53779); assay: JNK3 TR-FRET kinase assay (Example 14); type: biochemical; details: procedures of Example 14 (TR-FRET)
Experimental: (§1) 14.3. Active JNK 1, 2 and 3 TR-FRET Assay
(§2) (1) Assay buffer #1 with 0.0025% Tween and 1 mM DTT was prepared using JNK buffer stock solution.
(§3) (2) Assay buffer #2 with 0.025% BSA was prepared using the assay buffer #1.
(§4) (3) Test compound solution preparation: 5× compound solution was prepared using assay buffer #1 with 5% DMSO. The compound solution (10 μl/well) was added to a 384-well plate (Corning, Cat No. 3654).
(§5) (4) aJNK1, 2 or 3 preparation: aJNK stock (100 μg/ml) at −80° C. was thawed on ice and an aJNK (1.6 ng/ml) solution was prepared using assay buffer #2. The aJNK solution (20 μl/well) was added to the plate and the plate was shaken. The enzyme was incubated with the compound at RT for 10 min. (5) ATP/substrate solution preparation: ATP and substrate stocks were thawed on ice. 2.5×ATP/substrate (e.g., 25 μM or 2.5 mM ATP/50 nM EPIW-1) was prepared using assay buffer #1. The ATP/substrate (20 μl/well) was added to the plate and the plate was shaken. The plate was incubated at RT for 15 min. Note: In an exemplary assay, the final ATP concentration was about 1 mM. (6) EDTA preparation: 30 mM EDTA was prepared using 0.5M EDTA stock and assay buffer #1. The EDTA (10 μl/well) was added to the plate to quench the enzyme reaction and the plate was shaken well. (7) Detection reagent preparation: Eu-63 and SA-XL stocks were thawed on ice. 4× Eu-63/SA-XL (2 nM Eu-63/9.4 nM SA-XL) was prepared using JNK detection buffer. The Eu-63/SA-XL solution (20 μl/well) was added to the plate and the plate was shaken. The plate was incubated at RT for 1 hr before reading the plate on LJL using ratiometric method named HTRF.
(§6) 14.4. Coupled JNK 1, 2 and 3 TR-FRET Assay
(§7) (1) Assay buffer with 0.0025% Tween, 0.01% BSA, and 1 mM DTT was prepared using JNK buffer stock solution.
(§8) (2) Test compound solution preparation: 5× compound solution, including EDTA background, was prepared using assay buffer with 5% DMSO. The compound solution (10 μl/well) was added to a 384-well plate (Corning, Cat No. 3654).
(§9) (3) uJNK1,2, or 3 activation reaction preparation: uJNK activation solution was prepared using assay buffer (1.6 ng/ml MKK4, 1.6 ng/ml MKK7, 16 ng/ml uJNK, and 20 uM ATP final). The uJNK activation solution (35 μl/well) was added to the plate, the plate was shaken, and the reaction mixture was incubated with compound at 30° C. for 60 min. (4) c-Jun substrate solution preparation: 50 nM EPIW-1, c-Jun peptide, was prepared using assay buffer (15 nM final). The EPIW-1 solution (15 μl/well) was added to the plate, the plate was shaken and incubated at 30° C. for 60 min. (5) EDTA preparation: 30 mM EDTA was prepared using 0.5M EDTA stock and assay buffer. The EDTA (10 μl/well) was added to the plate to quench the enzyme reaction and the plate was shaken well. (6) Detection reagent preparation: Eu-73 and SA-XL stocks were thawed on ice. 4× Eu-73/SA-XL (2 nM Eu-73/9.4 nM SA-XL) were prepared using JNK detection buffer. The Eu-73/SA-XL solution (20 μl/well) was added to the plate. The plate was shaken and incubated at RT for 1 hr before reading the plate on LJL using ratiometric method named HTRF.

Protein sequences, listed by entry. Tags and fused reporters are not part of them. Chains listed by the source or under a name are the forms on record and can include a tag or linker.
UniProt P53779, whole entry, species assumed: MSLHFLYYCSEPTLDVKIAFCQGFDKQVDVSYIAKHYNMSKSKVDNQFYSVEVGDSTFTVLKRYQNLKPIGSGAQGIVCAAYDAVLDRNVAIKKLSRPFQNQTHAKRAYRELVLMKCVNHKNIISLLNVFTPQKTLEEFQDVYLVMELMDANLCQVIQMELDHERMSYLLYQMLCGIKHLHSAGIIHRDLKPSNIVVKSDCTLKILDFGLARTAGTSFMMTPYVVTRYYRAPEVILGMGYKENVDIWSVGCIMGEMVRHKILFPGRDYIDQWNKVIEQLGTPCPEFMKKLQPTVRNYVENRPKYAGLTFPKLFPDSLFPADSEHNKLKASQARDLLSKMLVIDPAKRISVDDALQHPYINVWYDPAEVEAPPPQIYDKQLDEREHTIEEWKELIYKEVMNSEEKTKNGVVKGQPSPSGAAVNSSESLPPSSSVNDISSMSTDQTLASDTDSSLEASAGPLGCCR
UniProt P45983, other isoform, or with tags, fused parts or gaps isoform P45983-2, species assumed: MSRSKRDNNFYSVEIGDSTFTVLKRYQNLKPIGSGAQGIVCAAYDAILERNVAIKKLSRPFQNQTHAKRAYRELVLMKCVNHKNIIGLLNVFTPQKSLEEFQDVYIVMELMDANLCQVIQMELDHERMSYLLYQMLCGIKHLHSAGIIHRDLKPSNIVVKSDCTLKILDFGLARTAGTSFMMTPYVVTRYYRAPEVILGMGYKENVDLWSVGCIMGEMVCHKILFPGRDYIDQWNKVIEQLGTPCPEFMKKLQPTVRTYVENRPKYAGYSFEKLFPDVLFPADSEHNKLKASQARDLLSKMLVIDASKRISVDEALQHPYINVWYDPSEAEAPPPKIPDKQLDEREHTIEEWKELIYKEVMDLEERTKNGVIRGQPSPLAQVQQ

JNK1 = JNK1 (Homo sapiens (Human), UniProt P45983); assay: JNK1 TR-FRET kinase assay (Example 14); type: biochemical; details: procedures of Example 14 (TR-FRET)
Experimental: as §1, §2, §3, §4, §5, §6, §7, §8, §9

| IC50 (JNK3) [µM] | IC50 (JNK1) [µM] | SMILES |
| --- | --- | --- |
| 0.1 to 10 | 0.1 to 10 | COc1ccc(CC(=O)Nc2ccsc2-c2nc(C)n[nH]2)cc1 [2-(4-methoxyphenyl)-N-(2-(3-methyl-1H-1,2,4-triazol-5-yl)thiophen-3-yl)acetamide] |
| 0.1 to 10 | 0.1 to 10 | COc1ccc(CC(=O)Nc2ccsc2-c2ncco2)cc1 [2-(4-methoxyphenyl)-N-(2-(oxazol-2-yl)thiophen-3-yl)acetamide] |
| 0.1 to 10 | 0.1 to 10 | Cn1ncnc1-c1ncsc1NC(=O)Cc1cccc2cnccc12 [2-(isoquinolin-5-yl)-N-(4-(1-methyl-1H-1,2,4-triazol-5-yl)thiazol-5-yl)acetamide] |
| 0.1 to 10 | 0.1 to 10 | O=C(Cc1ccc2c(c1)OCCO2)Nc1ccsc1-c1ncn[nH]1 [N-(2-(1H-1,2,4-triazol-5-yl)thiophen-3-yl)-2-(2,3-dihydrobenzo[b][1,4]dioxin-6-yl)acetamide] |
| 0.1 to 10 | – | O=C(Cc1cccc2ccccc12)Nc1ccsc1-c1cc[nH]n1 [N-(2-(1H-pyrazol-3-yl)thiophen-3-yl)-2-(naphthalen-1-yl)acetamide] |
| 0.1 to 10 | 0.1 to 10 | Cc1noc(-c2sccc2NC(=O)Cc2cccc3ccccc23)n1 [N-(2-(3-methyl-1,2,4-oxadiazol-5-yl)thiophen-3-yl)-2-(naphthalen-1-yl)acetamide] |
| 0.1 to 10 | 0.1 to 10 | Cc1cc(-c2sccc2NC(=O)Cc2cccc3ccccc23)n[nH]1 [N-(2-(5-methyl-1H-pyrazol-3-yl)thiophen-3-yl)-2-(naphthalen-1-yl)acetamide] |
| 0.1 to 10 | 0.1 to 10 | COc1ccc(CC(=O)Nc2sccc2-c2nn[nH]n2)cc1 [N-(3-(2H-tetrazol-5-yl)thiophen-2-yl)-2-(4-methoxyphenyl)-acetamide] |

— patent US9796706B2, “Inhibitors of Jun N-terminal kinase” (IMAGO PHARMACEUTICALS, INC., priority 2009, dated 2017)
